Data as given in BindingDB's records for 30543421, “Development of Novel Quinoxaline-Based κ-Opioid Receptor Agonists for the Treatment of Neuroinflammation” (2019).

Amino acid sequences for entries named in this document (tags omitted).
UniProt P41145, whole entry: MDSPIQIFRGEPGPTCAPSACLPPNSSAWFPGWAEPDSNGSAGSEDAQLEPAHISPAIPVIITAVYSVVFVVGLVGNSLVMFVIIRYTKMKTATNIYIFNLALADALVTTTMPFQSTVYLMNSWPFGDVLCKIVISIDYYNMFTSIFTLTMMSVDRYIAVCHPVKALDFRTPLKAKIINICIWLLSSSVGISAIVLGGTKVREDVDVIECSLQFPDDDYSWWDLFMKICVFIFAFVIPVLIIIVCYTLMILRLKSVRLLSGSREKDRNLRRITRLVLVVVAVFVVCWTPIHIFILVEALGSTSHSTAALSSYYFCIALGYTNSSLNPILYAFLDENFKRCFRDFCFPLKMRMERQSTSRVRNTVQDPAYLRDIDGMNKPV

Target: Kappa-type opioid receptor (Homo sapiens, UniProt P41145)
Assay: ASSAY_NAME: ChEMBL_1871643 (CHEMBL4372810) DESCRIPTION: Agonist activity at Tango-KOR (unknown origin) expressed in HTLA cells harboring TEV-fused-beta-arrestin 2 assessed as increase in beta arrestin 2 recruitment after overnight incubation by BrightGlo reagent based assay

## O=C(Cc1ccc(Cl)c(Cl)c1)N1CCN[C@H]2CCC[C@H](N3CCCC3)[C@H]21
  EC50: 3.8 nM
